Nrf2 ARE act – activates Nrf2 signaling; AREc32 ARE-luciferase reporter (MCF7-derived line), luminescence, 24 h; Potency, µM (doses to about 46.1 µM), actives largely listed as activators; hit rate 0.31% among 410,000; AID 624171; further: nearly all actives have a fitted effect of over 65% in size
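Cells of the AREc32 ARE-luciferase line are plated in OPTI-MEM containing 5% FBS and left overnight at 37 deg C. Compounds are pinned in, incubation continues 24 hr, and firefly luciferase signal is then measured.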
miR-21 FLuc – miR-21 reporter, rising signal | 340,000 tested, under 10 active | AID 2288 | HeLa miR-21 FLuc reporter, luciferase, 48 h | Potency, µM (titrated, usually from 38.3 µM); active = well fitted rising curve with a large enough effect; inconclusive = small, poorly fitted or top-dose-only effect; inactive = no such curve, though single readings can be large or run the other way;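 further: miR-21 action dims this reporter so a rising signal means less miR-21 action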
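Luminescence from a firefly luciferase reporter carrying a miR-21 binding site downstream, stably expressed under a CMV promoter in HeLa cells that make miR-21 endogenously, reports miRNA modulation after 48 h compound exposure up to approximately 40uM final.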
A549 tox-1 – counter-screen for Nrf2 inhibitors: cytotoxicity in A549 cells; A549 ARE-Fluc cells, CellTiter-Fluor viability, 18-24 h; Potency, µM (top dose mostly 46 µM), usual class: inhibitors; hit rate 0.16% among 390,000
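Cytotoxicity counterscreen: CellTiter-Fluor fluorescence was measured in A549 ARE_Fluc cells after 18-24 h of compound exposure in a concentration series. The subsequent BugLite luminescent read reports ARE-luciferase activity.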
Nrf2 inh – blocks Nrf2 signaling; hit rate 2.1% among 360,000; Potency, µM (titrated, usually from 46 µM), usual class: inhibitors; A549 ARE-Fluc reporter, luciferase luminescence, 18-24 h; further: nearly all actives have a fitted effect of over 60% in size
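Reporter: ARE-Fluc in A549. Exposure: 18-24 h, 37 °C, 5% CO2, 5% FBS OPTI-MEM. Readouts: fluorescent cytotoxicity (CellTiter-Fluor), then luminescent Nrf2 signal after BugLite.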
TCR activator – activates T cell receptor signaling | Potency, µM (titrated, usually from 9.22 µM), most hits filed as activators | 330,000 tested, under 10 active | AID 504894 | primary human leukocytes, anti-CD3, IL-2 HTRF, 48 h
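Primary human leukocytes incubated 48 hr with anti-CD3 beads plus compound, without co-stimulation. Secreted IL-2 measured by HTRF (europium cryptate/d2 anti-IL-2 pair, 320 nm excitation, 665 nm emission).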
ClpP mod – qHTS Assay for Activators of ClpP; purified B. subtilis ClpP, FRET peptide cleavage, 20 min; hit rate 1.9% among 340,000; Potency, µM (titrated, usually from 57.5 µM); AID 651965, 2013; active means well fitted falling curve with a large enough effect; inconclusive means small, poorly fitted or top-dose-only effect; inactive means no such curve, though single readings can be large or run the other way; further: the source files actives as falling curves though it sought activators and does not explain the sign; nearly all actives have a fitted effect of over 65% in size
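Buffer: 100 mM Tris/HCl pH8, 100 mM KCl, 0.05% low protease BSA, 2.5% glycerol, 0.01% Tween-20. ClpP 10 microg/mL final; 20 min RT; delta FRET normalized to ADEP and DMSO controls.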
FLuc counter 3 – blocks purified firefly luciferase in Nrf2 counterscreen. hit rate 4% among 1,400. purified firefly luciferase, luminescence inhibition. Potency, µM (doses to about 57.5 µM), actives largely listed as inhibitors. shares compounds with Nrf2 inh. AID 720522; further: nearly all actives have a fitted effect of over 65% in size
A549 tox-2 – toxic to A549 ARE-Fluc cells in Nrf2 counterscreen. shares compounds with Nrf2 inh. A549 ARE-Fluc cells, cytotoxicity counterscreen. Potency, µM (top dose mostly 46.1 µM), most hits filed as inhibitors. hit rate 2% among 1,400. AID 720523;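 further: cells exposed to compounds for 18 to 24 hours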
ARE-Fluc inh – confirmation of Nrf2 inhibitors in A549 ARE reporter cells | A549 ARE-firefly luciferase reporter, luminescence | Potency, µM (titrated, usually from 46.1 µM), hits mostly inhibitors | hit rate 74% among 1,400 | AID 720524 | shares compounds with Nrf2 inh; further: nearly all actives have a fitted effect of over 65% in size
Each line names hits and unclear results; the compound was inactive in the other large screens (follow-up assays come after a bar, where shown). Compounds with a hit are over-represented: about 3.7% of the library has one in this group of screens. Unless noted, the call rests on the fitted dose curve; in most records, active means well fitted curve in the direction sought with a large enough effect; inconclusive means small, poorly fitted or top-dose-only effect, or another doubt; inactive means no such curve, though single readings can be large; an effect the other way counts as inactive or inconclusive.

CCCCC(=O)Nc1cccc(-c2cn3ccccc3n2)c1	ClpP mod 28µM
Cc1cc(C)c(S(=O)(=O)Nc2cccc(-c3cn4ccccc4n3)c2)c(C)c1	A549 tox-1 inconclusive, ClpP mod 28µM (no result: Nrf2 inh, TCR activator)
O=C(c1ccc2ccccc2n1)N1CCN(S(=O)(=O)c2ccccc2)CC1	none (no result: miR-21 FLuc, TCR activator)
Cc1cccc(C)c1NC(=O)CCC(=O)N1Cc2ccccc2Oc2ncccc21	Nrf2 inh inconclusive (no result: TCR activator)
Cc1ccc(S(=O)(=O)c2nnn3c2nc(NCCc2ccccc2)c2sccc23)cc1	Nrf2 inh 21µM, ClpP mod 10µM (no result: TCR activator)
Cc1ccc(S(=O)(=O)c2nnn3c2nc(NCc2ccc4c(c2)OCO4)c2sccc23)cc1C	Nrf2 inh inconclusive, ClpP mod 20µM (no result: TCR activator)
CC(C)c1ccc(S(=O)(=O)c2nnn3c2nc(NCCc2ccccc2)c2sccc23)cc1	A549 tox-1 inconclusive, Nrf2 inh inconclusive, ClpP mod 25µM (no result: TCR activator)
Cc1ccc(CCNc2nc3c(S(=O)(=O)c4ccccc4)nnn3c3ccsc23)cc1	none (no result: TCR activator)
Cc1ccsc1CN(C(=O)c1ccccc1)C1CCS(=O)(=O)C1 (centres undefined)	none
O=C1c2ccccc2-c2onc3c(N4CCN(CCO)CC4)cc(N4CCN(C(=O)c5ccco5)CC4)c1c23	A549 tox-1 21µM, Nrf2 inh inconclusive (no result: ClpP mod)
CSC1SCC2C(=O)N(C)C(C(C)C)C(=O)OCC(NC(=O)c3cnc4ccccc4n3)C(=O)NC(C)C(=O)N(C)C1C(=O)N(C)C(C(C)C)C(=O)OCC(NC(=O)c1cnc3ccccc3n1)C(=O)NC(C)C(=O)N2C (centres undefined)	A549 tox-1 inconclusive, Nrf2 inh 0.0065µM (no result: miR-21 FLuc) | FLuc counter 3 inconclusive | A549 tox-2 10µM | ARE-Fluc inh 6.5µM
CN(C)S(=O)(=O)N1CCC(Oc2ccc(C(=O)NC3Cc4ccccc4C3)cc2)CC1	Nrf2 inh inconclusive
CN(C)S(=O)(=O)N1CCC(Oc2cccc(C(=O)NC3CCCCCC3)c2)CC1	Nrf2 inh 2.6µM | FLuc counter 3 inactive | A549 tox-2 inconclusive | ARE-Fluc inh 0.073µM
COc1ccc(-c2nc(CN3CCN(c4ncnc5ccccc45)CC3)c(C)o2)c(OC)c1	miR-21 FLuc inconclusive, A549 tox-1 inconclusive, Nrf2 inh 8.2µM | FLuc counter 3 inactive | A549 tox-2 inactive | ARE-Fluc inh 8.2µM
CC(C)CCOc1ccc(Cn2c(=O)oc3ccccc32)cc1	none (no result: TCR activator)
Clc1ccc(-c2cc(C3CCNCC3)[nH]n2)cc1	none (no result: ClpP mod)
Nc1nc(Cl)cc(N2CCC(c3cc(-c4ccc(Cl)cc4)n[nH]3)CC2)n1	A549 tox-1 inconclusive, Nrf2 inh 8.2µM | FLuc counter 3 inactive | A549 tox-2 inactive | ARE-Fluc inh 18µM
COc1cc(CNC(=O)c2ccccc2NC(=O)C2=C(C)OCCS2)cc(OC)c1OC	Nrf2 inh inconclusive
NNC(=O)C1=NOC2COC3(CCN(c4ncccn4)CC3)OCC12 (centres undefined)	Nrf2 inh inconclusive (no result: ClpP mod)
O=C(N/N=C\c1ccc(Cl)cc1)C1=NOC2COC3(CCN(c4ccc([N+](=O)[O-])cc4)CC3)OCC12 (centres undefined)	A549 tox-1 inconclusive, Nrf2 inh 2.6µM | FLuc counter 3 inactive | A549 tox-2 inactive
O=c1cc(N2CCN(c3cccc(Cl)c3)CC2)[nH]c(=O)n1C1CCCCC1	A549 tox-1 inconclusive, Nrf2 inh inconclusive | FLuc counter 3 inactive | A549 tox-2 inconclusive
O=c1cc(N2CCN(c3ccccc3)CC2)[nH]c(=O)n1C1CCCCC1	A549 tox-1 inconclusive
COc1ccc(Cl)cc1NC(=O)c1cc2c(=O)n3ccccc3nc2s1	Nrf2 inh 1.6µM (no result: TCR activator) | FLuc counter 3 inactive | A549 tox-2 inconclusive | ARE-Fluc inh 23µM
COc1ccc(Cl)cc1NC(=O)CSC1=Nc2ccccc2C2=NC(CCC(=O)NCc3ccc(F)cc3)C(=O)N12 (centres undefined)	A549 tox-1 inconclusive, Nrf2 inh 3.7µM (no result: TCR activator) | FLuc counter 3 inactive | A549 tox-2 inconclusive | ARE-Fluc inh 15µM
CCCCN(C)C(=O)C1CCCN(c2ncnc3onc(C)c23)C1 (centres undefined)	miR-21 FLuc inconclusive, Nrf2 inh 9.2µM (no result: TCR activator) | FLuc counter 3 inactive | A549 tox-2 inactive | ARE-Fluc inh 2.9µM
COc1ccc(NC(=O)CN(C)C(=O)CCCN2C(=O)c3cccc4cccc(c34)C2=O)cc1	ClpP mod inconclusive (no result: miR-21 FLuc)
O[C@@H]1[C@@H](O)C=C2CCN3Cc4cc5c(cc4[C@H]1C23)OCO5 (some centres undefined)	A549 tox-1 inconclusive, Nrf2 inh 6.5µM (no result: miR-21 FLuc) | FLuc counter 3 inactive | A549 tox-2 inconclusive | ARE-Fluc inh 7.3µM
Cn1c(=O)c2c(nc(NCCc3ccccc3)n2CC(=O)NCCc2ccccc2)n(C)c1=O	none
CCN(CC)CCNc1nc2c(c(=O)n(C)c(=O)n2C)n1C/C=C(/C)Cl	none
C=CCn1c(NCCc2ccccc2)nc2c1c(=O)n(C)c(=O)n2C	Nrf2 inh 9.2µM | FLuc counter 3 inactive | A549 tox-2 inactive
C/C(Cl)=C\Cn1c(NCCc2ccccc2)nc2c1c(=O)n(C)c(=O)n2C	Nrf2 inh 2.9µM | FLuc counter 3 inactive | A549 tox-2 inactive | ARE-Fluc inh 7.3µM
CC(C)CNc1nc(N)c([N+](=O)[O-])c(N2CCCCCC2)n1	Nrf2 inh 9.2µM (no result: ClpP mod) | FLuc counter 3 inactive | A549 tox-2 inactive | ARE-Fluc inh 8.2µM
COc1ccc(NC(=S)NC(=O)/C=C/c2cccs2)cc1	none (no result: ClpP mod)
O=C(/C=C/c1cccs1)NC(=S)Nc1ccc(S(=O)(=O)Nc2ccccc2C(F)(F)F)cc1	Nrf2 inh 8.2µM | FLuc counter 3 inactive | A549 tox-2 inactive | ARE-Fluc inh inactive
Cc1cccc(NC(=O)CNC(=O)COC(=O)C2CC2C)c1C (centres undefined)	none (no result: miR-21 FLuc)
